From the kinase profiling compilation of Christmann-Franck et al. (2016)

Chains of the proteins cited; added tags and fusions are not shown. Lines headed by an entry give the natural chain unless they say otherwise; changes in a name come on top.
UniProt Q9Y5S2: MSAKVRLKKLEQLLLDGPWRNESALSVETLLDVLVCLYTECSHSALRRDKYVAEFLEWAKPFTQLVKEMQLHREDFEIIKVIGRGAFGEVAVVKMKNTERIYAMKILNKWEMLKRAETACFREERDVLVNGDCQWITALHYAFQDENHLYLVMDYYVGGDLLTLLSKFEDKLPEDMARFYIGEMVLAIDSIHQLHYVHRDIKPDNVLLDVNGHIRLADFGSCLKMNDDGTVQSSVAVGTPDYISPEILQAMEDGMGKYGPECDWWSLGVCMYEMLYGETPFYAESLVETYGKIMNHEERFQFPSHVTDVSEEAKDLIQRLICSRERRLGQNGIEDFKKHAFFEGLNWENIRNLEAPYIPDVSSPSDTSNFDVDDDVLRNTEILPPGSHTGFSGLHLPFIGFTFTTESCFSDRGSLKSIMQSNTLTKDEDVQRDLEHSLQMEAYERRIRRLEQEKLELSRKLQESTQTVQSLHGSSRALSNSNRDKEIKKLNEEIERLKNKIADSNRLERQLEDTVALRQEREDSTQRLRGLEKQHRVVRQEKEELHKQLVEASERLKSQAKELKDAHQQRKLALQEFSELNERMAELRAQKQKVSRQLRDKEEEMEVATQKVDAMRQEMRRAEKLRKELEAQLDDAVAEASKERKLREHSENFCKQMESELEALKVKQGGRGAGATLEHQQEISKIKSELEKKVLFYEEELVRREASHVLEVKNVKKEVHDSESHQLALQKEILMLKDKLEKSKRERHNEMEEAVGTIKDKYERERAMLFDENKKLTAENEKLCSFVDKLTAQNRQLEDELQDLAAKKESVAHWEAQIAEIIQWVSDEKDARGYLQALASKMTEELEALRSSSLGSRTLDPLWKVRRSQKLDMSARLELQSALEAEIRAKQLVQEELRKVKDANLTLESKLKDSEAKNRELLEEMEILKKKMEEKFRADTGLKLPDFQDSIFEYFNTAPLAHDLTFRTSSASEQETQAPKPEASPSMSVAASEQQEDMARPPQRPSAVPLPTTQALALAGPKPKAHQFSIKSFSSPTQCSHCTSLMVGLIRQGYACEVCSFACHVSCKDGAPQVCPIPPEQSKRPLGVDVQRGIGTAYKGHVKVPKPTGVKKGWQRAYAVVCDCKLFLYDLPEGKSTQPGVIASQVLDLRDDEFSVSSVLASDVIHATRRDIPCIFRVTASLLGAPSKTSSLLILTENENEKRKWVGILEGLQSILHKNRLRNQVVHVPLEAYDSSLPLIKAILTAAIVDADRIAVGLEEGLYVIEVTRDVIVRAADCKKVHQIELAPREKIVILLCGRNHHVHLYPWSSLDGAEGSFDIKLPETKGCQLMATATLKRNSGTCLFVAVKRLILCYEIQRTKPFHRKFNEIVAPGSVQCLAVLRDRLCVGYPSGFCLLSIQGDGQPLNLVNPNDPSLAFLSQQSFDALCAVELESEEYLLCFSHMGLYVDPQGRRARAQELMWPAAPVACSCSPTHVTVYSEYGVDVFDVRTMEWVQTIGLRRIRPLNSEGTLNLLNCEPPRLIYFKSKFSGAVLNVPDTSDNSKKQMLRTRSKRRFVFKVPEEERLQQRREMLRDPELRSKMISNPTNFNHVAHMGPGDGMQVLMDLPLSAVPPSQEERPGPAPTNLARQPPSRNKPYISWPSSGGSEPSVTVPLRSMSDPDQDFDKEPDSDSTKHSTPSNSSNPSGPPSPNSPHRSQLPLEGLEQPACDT
UniProt O15111: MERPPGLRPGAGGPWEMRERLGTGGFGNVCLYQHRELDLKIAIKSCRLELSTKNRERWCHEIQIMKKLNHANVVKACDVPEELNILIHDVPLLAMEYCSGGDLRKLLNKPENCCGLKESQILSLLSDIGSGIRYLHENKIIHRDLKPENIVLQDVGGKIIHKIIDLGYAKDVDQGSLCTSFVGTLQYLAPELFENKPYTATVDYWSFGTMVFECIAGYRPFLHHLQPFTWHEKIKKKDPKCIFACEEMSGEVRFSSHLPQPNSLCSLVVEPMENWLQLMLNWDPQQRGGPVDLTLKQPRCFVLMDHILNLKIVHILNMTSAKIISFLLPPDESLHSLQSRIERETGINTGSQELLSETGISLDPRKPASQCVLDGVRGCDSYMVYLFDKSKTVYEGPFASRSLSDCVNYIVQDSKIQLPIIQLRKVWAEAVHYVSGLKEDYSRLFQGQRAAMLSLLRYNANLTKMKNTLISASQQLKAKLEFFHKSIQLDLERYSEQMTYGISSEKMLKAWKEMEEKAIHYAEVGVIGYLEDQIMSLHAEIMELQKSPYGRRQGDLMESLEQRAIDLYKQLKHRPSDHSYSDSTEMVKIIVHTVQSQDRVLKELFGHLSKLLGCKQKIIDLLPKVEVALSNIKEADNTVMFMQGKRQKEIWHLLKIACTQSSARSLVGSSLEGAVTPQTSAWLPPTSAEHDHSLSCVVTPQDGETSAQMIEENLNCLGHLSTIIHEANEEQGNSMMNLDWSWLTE
UniProt P54762: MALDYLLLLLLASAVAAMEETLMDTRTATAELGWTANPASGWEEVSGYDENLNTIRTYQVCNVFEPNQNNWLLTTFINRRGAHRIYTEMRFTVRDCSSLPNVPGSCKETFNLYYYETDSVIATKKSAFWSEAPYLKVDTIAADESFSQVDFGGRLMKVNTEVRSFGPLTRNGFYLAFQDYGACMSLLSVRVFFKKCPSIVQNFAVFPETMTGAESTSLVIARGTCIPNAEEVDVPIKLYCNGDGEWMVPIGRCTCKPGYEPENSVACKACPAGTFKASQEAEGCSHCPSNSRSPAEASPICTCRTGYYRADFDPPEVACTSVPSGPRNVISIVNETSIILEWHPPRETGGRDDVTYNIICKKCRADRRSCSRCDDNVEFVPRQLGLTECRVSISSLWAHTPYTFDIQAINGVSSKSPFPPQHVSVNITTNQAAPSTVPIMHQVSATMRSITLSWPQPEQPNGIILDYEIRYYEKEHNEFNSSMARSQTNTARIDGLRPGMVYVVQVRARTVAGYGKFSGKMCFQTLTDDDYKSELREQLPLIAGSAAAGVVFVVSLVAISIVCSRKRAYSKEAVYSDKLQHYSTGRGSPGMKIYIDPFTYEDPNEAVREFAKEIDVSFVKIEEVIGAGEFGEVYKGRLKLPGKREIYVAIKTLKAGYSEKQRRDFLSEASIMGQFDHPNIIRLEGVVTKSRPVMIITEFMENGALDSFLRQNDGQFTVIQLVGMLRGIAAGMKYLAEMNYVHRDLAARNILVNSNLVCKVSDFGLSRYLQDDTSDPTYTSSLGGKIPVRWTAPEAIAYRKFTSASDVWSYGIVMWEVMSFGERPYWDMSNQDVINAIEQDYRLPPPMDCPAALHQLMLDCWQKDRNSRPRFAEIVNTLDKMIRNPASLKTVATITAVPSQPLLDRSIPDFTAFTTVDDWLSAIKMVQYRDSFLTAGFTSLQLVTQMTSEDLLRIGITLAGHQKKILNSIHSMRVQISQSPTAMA
UniProt P51955: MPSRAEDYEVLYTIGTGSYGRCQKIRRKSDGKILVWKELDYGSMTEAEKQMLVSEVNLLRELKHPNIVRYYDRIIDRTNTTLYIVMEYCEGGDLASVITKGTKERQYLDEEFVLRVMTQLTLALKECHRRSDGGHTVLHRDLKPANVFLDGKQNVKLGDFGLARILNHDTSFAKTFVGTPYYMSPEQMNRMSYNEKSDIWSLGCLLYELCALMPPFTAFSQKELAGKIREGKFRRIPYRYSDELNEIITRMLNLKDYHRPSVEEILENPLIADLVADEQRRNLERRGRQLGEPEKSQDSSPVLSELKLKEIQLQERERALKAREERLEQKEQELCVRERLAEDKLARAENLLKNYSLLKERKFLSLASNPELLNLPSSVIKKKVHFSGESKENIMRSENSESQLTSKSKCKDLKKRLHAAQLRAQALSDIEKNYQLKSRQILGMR

What was measured:
Assay in all cases: radiometric filter-binding kinase assay, Kinase HotSpot
Conditions in all cases: compound 0.5 µM; ATP 10 µM
CDC42BPB (human) = CDC42BPB (human) (UniProt Q9Y5S2)
CHUK (human) = CHUK (human) (UniProt O15111)
EPHB1 (human) = EPHB1 (human) (UniProt P54762)
NEK2 (human) = NEK2 (human) (UniProt P51955)

Structure (SMILES)	residual activity (CDC42BPB (human)) [%]	residual activity (CHUK (human)) [%]	residual activity (EPHB1 (human)) [%]	residual activity (NEK2 (human)) [%]
O=C1NC(=O)C(c2cn(CCCO)c3ncccc23)=C1c1cnccn1	102	101	109	
COc1ccc(OC)c2c(=S)c3ccccc3[nH]c12				95
